Assays:
Wild-type RET kinase = Wild-type RET kinase (Homo sapiens, UniProt P07949); assay: HTRF method for testing the inhibitory activity of compounds against RET; assay type: biochemical; conditions: read-out: Wild-type RET kinase
VEGFR2 kinase = VEGFR2 kinase (Homo sapiens, UniProt P35968); assay: HTRF method for testing the inhibitory activity of compounds against VEGFR2; assay type: biochemical; conditions: read-out: VEGFR2 kinase

Sequences of proteins named here, by UniProt entry; tags and fusion partners are left off. Residues count along the entry.
UniProt P07949, 29-1114 limits assumed: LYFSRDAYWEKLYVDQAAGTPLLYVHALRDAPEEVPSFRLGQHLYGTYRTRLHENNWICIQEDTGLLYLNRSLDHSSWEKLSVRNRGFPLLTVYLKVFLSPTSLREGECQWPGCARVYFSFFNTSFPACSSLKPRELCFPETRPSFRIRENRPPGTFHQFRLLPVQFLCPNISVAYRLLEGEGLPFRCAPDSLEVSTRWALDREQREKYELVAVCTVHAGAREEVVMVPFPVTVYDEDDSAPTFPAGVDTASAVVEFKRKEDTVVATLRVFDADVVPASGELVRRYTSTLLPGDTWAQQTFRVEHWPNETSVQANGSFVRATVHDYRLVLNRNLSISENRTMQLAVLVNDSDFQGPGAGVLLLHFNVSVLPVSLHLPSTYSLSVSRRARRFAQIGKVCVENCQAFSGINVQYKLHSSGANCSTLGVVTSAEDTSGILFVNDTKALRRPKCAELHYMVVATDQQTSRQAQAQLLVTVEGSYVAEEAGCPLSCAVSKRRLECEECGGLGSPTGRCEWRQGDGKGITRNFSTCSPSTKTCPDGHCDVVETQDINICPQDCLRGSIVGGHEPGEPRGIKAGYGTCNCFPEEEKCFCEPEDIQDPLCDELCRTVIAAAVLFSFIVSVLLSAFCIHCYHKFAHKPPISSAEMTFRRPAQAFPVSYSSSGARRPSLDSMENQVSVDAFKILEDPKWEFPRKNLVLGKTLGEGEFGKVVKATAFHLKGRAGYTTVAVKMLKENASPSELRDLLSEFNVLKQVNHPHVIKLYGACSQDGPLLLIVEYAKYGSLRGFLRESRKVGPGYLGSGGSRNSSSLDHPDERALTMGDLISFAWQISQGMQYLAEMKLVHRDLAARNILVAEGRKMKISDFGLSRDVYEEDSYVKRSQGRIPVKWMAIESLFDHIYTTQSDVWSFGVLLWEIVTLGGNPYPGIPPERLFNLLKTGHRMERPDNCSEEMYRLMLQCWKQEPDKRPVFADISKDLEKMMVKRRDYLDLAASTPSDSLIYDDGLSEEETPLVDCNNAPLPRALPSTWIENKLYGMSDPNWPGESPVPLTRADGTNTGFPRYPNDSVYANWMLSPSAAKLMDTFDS
UniProt P35968, 20-1356 limits assumed: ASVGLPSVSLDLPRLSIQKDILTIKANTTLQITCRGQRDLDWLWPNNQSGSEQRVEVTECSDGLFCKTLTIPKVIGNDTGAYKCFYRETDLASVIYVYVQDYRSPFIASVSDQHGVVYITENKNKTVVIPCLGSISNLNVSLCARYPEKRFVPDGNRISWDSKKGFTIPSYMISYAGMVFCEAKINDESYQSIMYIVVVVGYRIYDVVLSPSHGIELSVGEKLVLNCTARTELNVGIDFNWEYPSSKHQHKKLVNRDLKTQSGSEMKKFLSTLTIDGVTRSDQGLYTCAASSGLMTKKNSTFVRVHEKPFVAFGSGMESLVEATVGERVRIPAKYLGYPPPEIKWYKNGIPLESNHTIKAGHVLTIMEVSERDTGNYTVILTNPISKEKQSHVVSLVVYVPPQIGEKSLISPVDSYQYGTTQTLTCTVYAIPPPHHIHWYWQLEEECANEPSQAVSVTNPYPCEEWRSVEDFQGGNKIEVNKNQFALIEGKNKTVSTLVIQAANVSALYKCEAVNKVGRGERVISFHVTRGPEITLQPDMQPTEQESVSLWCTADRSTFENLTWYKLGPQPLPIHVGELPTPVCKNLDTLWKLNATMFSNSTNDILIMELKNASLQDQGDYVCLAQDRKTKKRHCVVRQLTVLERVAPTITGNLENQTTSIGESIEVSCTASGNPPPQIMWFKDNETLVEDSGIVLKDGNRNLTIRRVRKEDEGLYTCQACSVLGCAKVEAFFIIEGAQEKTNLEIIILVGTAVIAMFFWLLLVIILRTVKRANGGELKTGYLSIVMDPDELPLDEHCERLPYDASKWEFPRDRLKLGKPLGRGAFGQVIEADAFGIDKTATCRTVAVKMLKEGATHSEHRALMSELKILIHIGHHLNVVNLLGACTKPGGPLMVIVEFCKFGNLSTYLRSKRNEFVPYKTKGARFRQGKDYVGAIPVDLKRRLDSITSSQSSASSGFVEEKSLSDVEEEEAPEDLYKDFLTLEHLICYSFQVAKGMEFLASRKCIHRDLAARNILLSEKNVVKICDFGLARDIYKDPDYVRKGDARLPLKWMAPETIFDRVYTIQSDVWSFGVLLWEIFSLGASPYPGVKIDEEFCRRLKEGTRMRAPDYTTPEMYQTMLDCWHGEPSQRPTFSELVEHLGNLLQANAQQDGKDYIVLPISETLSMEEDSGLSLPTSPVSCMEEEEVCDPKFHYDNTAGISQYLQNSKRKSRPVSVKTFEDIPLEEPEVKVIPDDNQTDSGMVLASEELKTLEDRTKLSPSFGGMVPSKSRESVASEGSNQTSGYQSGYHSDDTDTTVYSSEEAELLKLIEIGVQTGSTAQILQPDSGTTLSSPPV

## COC(=O)c1cnn2cc(-c3cnn(C)c3)cc(-c3ccc(N4CCN(Cc5ccc(OC)nc5)CC4)nc3)c12
Wild-type RET kinase
  IC50: 12.7 nM
VEGFR2 kinase
  IC50: 202 nM
